Measurements from PubChem BioAssay AID1053197 (The Scripps Research Institute Molecular Screening Center, 2014).
The list shows a part of the results, in another mix than the full data. Activity calls are given as the source filed them.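 Rule for the calls: active = inhibition above a cutoff: mean of compounds within the control limits plus 3 SD of those (cut at about 17% in these data); inactive = the rest.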

Sequences of proteins named here, by UniProt entry; tags and fusion partners are left off. A change or cut given only in a name is not applied to a line headed by its entry.
UniProt Q9HAT2: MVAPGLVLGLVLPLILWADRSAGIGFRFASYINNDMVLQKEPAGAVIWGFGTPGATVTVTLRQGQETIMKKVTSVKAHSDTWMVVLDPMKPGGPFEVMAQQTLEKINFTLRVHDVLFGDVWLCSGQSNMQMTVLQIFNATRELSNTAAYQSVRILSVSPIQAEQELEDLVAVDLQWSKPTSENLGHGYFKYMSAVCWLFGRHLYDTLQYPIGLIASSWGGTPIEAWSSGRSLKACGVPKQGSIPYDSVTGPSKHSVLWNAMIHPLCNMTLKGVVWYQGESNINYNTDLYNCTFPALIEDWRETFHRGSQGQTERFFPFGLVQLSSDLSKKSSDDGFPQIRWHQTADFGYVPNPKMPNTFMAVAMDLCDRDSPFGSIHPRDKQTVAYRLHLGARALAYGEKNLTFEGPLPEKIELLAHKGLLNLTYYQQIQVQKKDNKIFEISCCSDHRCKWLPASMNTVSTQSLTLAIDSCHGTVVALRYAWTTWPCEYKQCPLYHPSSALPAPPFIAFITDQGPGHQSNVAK

molecular target: Sialate O-acetylesterase (Homo sapiens) (UniProt Q9HAT2); experiment: blockers of sialate O-acetylesterase activity-probe labeling – biochemical, fluorescence polarization, FP-Rh probe, 1536-well HTS, primary screen (AID 1053197); details: SIAE FP-Rh probe binding, at 9.66 µM, active compounds read high;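 note: 0% = plate median of compound wells and 100% = probe without SIAE protein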

Compound	inhibition
CCOC(=O)c1ccc(NC(=O)C(C)(CCl)SC)cc1 (stereo unspecified)	inactive: 6.88%
O=C(OC1CN2CCC1CC2)c1cccc([N+](=O)[O-])c1 (stereo unspecified)	inactive: -5.94%
COc1cc(I)ccc1[As](=O)(O)O	inactive: -1.72%
COc1ccc2nc(NP(=O)(c3ccccc3)c3ccccc3)sc2c1	inactive: 7.88%
O=P1(N(CCCl)CCCl)Nc2ccccc2N1	inactive: 6.76%
O=P1(N(CCCl)CCCl)OCCCN1CCCl (stereo unspecified)	inactive: 1.77%
Cc1cc(=O)[nH]c(N[N+](=O)[O-])n1	inactive: 0.04%
O=C(OC1CN2CCC1CC2)C12CC3CC(CC(C3)C1)C2 (stereo unspecified)	inactive: -1.52%
Cc1c2c(nc3ccccc13)SC(C(Cl)Cl)C2 (stereo unspecified)	inactive: 1.54%
COc1ccc(N/C(=N/P(=O)(N2CCOCC2)N2CCOCC2)N2CCOCC2)cc1	inactive: 5.47%
O=[N+]([O-])c1cc(Oc2ccc([N+](=O)[O-])cc2C(F)(F)F)cc([N+](=O)[O-])c1	inactive: -1.01%
Cc1ccc2nc3c(c(C)c2c1)CC(C(Cl)Cl)S3 (stereo unspecified)	inactive: -5.96%
Cc1ccc(OP(=O)(Nc2ccc([N+](=O)[O-])cn2)Oc2ccc(C)cc2)cc1	inactive: 0.43%
[N-]=[N+]=NC1CCCCC1NC(=O)c1cc([N+](=O)[O-])cc([N+](=O)[O-])c1 (stereo unspecified)	inactive: 0.35%
O=[N+]([O-])c1ccc(-c2cc([N+](=O)[O-])c(O)c([N+](=O)[O-])c2)cc1	inactive: -2.88%
COc1cc(C(=O)NCC2(N3CCOCC3)CCCCC2)ccc1OCC(C)C	inactive: -3.7%
C[As](=O)(O)c1cccc(C(=O)O)c1	inactive: 0%
O=[As](O)(c1ccc(O)cc1)c1ccccc1O	inactive: 0.42%
CC(C)NC(=O)NP(=O)(Oc1ccccc1)Oc1ccccc1	inactive: 4.44%
CCN(CC)C(=S)SC(NC=O)C(Cl)(Cl)Cl (stereo unspecified)	inactive: -0.4%
O=C(OC1CN2CCC1CC2)c1cccc2[nH]cnc12 (stereo unspecified)	inactive: -9.53%
COC(=O)C1(C)COP(=O)(N2CCCCCC2)OC1 (stereo unspecified)	inactive: -2.58%
CC(C)c1ccc(OP(=O)(Nc2ccccn2)Oc2ccccc2F)cc1 (stereo unspecified)	inactive: -6.31%

Compound	inhibition
ClCCSc1nnc(-c2cccnc2)o1	inactive: -2.13%
CN(C(=O)Cc1ccc(Cl)c(Cl)c1)[C@H]1CCCC[C@@H]1N1CCCC1	inactive: -7.33%
Cc1ccc(NP(=O)(Oc2ccccc2F)Oc2ccccc2F)nc1	inactive: 2.25%
Cc1cc(SC(NC(=O)c2ccc(F)cc2)C(Cl)(Cl)Cl)ncn1 (stereo unspecified)	inactive: 5.45%
CCOP(=O)(Nc1ccccc1)OCC	inactive: 1.25%
CCn1c(=O)n(C2CCN(CC3CCCCCCC3)C[C@H]2CO)c2ccccc21 (stereo partly specified)	inactive: -2.4%
CCCC1OP(N)(=O)OCC1CC (stereo unspecified)	inactive: 1.34%
CC(=O)Nc1ccc([As](=O)(O)O)cc1	inactive: -3.9%
O=C(O)c1ccccc1[As](=O)(O)O	inactive: -2.49%
O=P(Nc1nc2ccc(Cl)cc2s1)(c1ccccc1)c1ccccc1	inactive: -4.03%
CN(C)P(=O)(N(C)C)n1c(Nc2ccccc2)nnc1-c1ccccc1	inactive: 0.32%
CCN(N=Nc1nonc1N)c1nonc1N	inactive: -0.53%
CN(C(=O)Cc1ccccc1)C1CC[C@@]2(CCCO2)C[C@@H]1N1CCCC1 (stereo partly specified)	inactive: 1.61%
Nc1cccc2ccc([As](=O)(O)O)cc12	active: 19.3%
Cc1ccc(OP(=O)(Nc2nccs2)Oc2ccc(C)cc2)cc1	inactive: -1.24%
COc1ccccc1OP(=O)(Nc1ccc(C)cn1)Oc1ccccc1OC	inactive: 1.26%
CN1CCCC(OC(=O)C(c2ccccc2)c2ccccc2)C1 (stereo unspecified)	inactive: -0.17%
Clc1ccc(Cl)c(NC2=NCC(CBr)S2)c1 (stereo unspecified)	inactive: 0.92%
NC(=O)c1cc([N+](=O)[O-])cc([N+](=O)[O-])c1N	inactive: 0.44%
Cc1ccc(N/C(=N/P(=O)(N2CCOCC2)N2CCOCC2)N2CCOCC2)cc1	inactive: 3.3%
CN(C(=O)Cc1ccc(Cl)c(Cl)c1)[C@H]1CCCC[C@H]1N1CCCC1	inactive: -2.78%
Nc1cc(N)c2nonc2c1[N+](=O)[O-]	inactive: -3.57%
CC(C)CC(=O)NC(Sc1ccc(Cl)cc1)C(Cl)(Cl)Cl (stereo unspecified)	inactive: -1.1%

Compound	inhibition
O=C(NC(Sc1ccncn1)C(Cl)(Cl)Cl)c1ccccc1 (stereo unspecified)	inactive: 5.29%
Oc1ccccc1CNc1ccccn1	inactive: 0.89%
CC(=O)N1C2C3N(C(C)=O)C1C1N(C(C)=O)C(C(N1C(C)=O)N3C(C)=O)N2C(C)=O	inactive: 2.4%
O=[N+]([O-])c1cccc2n[nH]nc12	inactive: 2.01%
O=[N+]([O-])c1cc([N+](=O)[O-])c(CCNc2ccccc2)c([N+](=O)[O-])c1	active: 39.6%
CCc1nc2c(n1)c1c(non1O)c1c2no[n+]1[O-]	inactive: -1.24%
Cc1ccc(NP(=O)(Oc2ccccc2)Oc2ccccc2)nc1	inactive: -7.11%
COc1ccc(C2=NCC(CBr)S2)cc1 (stereo unspecified)	inactive: 1.71%
CN(C)C(=O)OCCc1n(C)cc[n+]1C	inactive: -8.53%
CC(C)c1nc(Nc2ccccc2)n(P(=O)(N(C)C)N(C)C)n1	inactive: -1.52%
CC(C)=N/N=C(\N)N[N+](=O)[O-]	inactive: 4.88%
CC1CCN(C(=O)Oc2c(Cl)cc(Cl)c3cccnc23)CC1	inactive: -0.39%
c1cc(-c2nn[nH]n2)ccc1-c1nn[nH]n1	inactive: -3.84%
C[N+]1=C2C=CC=CC=C2SC12C([N+](=O)[O-])=CC([N+](=O)[O-])=C[C-]2[N+](=O)[O-] (stereo unspecified)	active: 20.9%
Nc1ccc([As](=O)(O)c2ccc(N)cc2)cc1	inactive: 9.91%
CCN(/C(=N/P(=O)(N1CCOCC1)N1CCOCC1)N1CCOCC1)c1ccc(OC)cc1	inactive: 1.99%
O=C(Nc1cc([As](=O)(O)O)ccc1O)c1ccccc1	inactive: 5.55%
O=P1(N(CCCl)CCCl)OCCCS1 (stereo unspecified)	inactive: 0.98%
COC(=O)C1(C)COP(=O)(Nc2ccccc2)OC1 (stereo unspecified)	inactive: -1.67%
O=[N+]([O-])c1cccc(NC2=NCC(CBr)S2)c1 (stereo unspecified)	inactive: -13.1%
O=C(O)CNc1ccc([As](=O)(O)O)cc1	inactive: -4.78%
CC(C)(C)C(=O)NC(Sc1ccncn1)C(Cl)(Cl)Cl (stereo unspecified)	inactive: 5.32%
O=[N+]([O-])c1ncn(CCn2ncnc2[N+](=O)[O-])n1	inactive: -2.58%

Compound	inhibition
C[C@H]1OP(=O)(Oc2ccccc2)[C@H](O)[C@H](O)[C@H]1N=[N+]=[N-] (stereo partly specified)	inactive: 1.41%
O=P(Nc1nc2ccccc2s1)(c1ccccc1)c1ccccc1	inactive: -6.51%
COc1ccc(N)c([N+](=O)[O-])c1[N+](=O)[O-]	inactive: -0.01%
Nc1ccc(CCCCOc2ccccc2)cc1	inactive: 2.82%
CN(C)C1(CNC(=O)c2ccc(Cl)c(S(N)(=O)=O)c2)CCCCC1	inactive: 4.34%
O=P(Nc1ccccn1)(c1ccc(Br)cc1)c1ccc(Br)cc1	inactive: 9.47%
C(Cc1nn[nH]n1)Cc1nn[nH]n1	inactive: -8.2%
Nc1ccc([As](=O)(O)c2ccc([N+](=O)[O-])cc2)cc1	inactive: 1.41%
C/C(N)=N\P(=O)(OCc1ccccc1)OCc1ccccc1	inactive: -2.44%
O=C(OC1CN2CCC1CC2)c1cccc(Cl)c1 (stereo unspecified)	inactive: 0.44%
CC(=O)NC(SC(=S)N(C)C)C(Cl)(Cl)Cl (stereo unspecified)	inactive: -4.53%
O=[N+]([O-])c1ncn(CCn2cnc([N+](=O)[O-])n2)n1	inactive: 2.48%
O=[As](O)(c1ccccc1)c1ccc(O)cc1	inactive: 0.93%
c1nnnn1CCn1cnnn1	inactive: 0.71%
O=P(Nc1nccs1)(c1ccccc1)c1ccccc1	inactive: 3.37%
CC(C)C(=O)NC(Sc1ccccc1)C(Cl)(Cl)Cl (stereo unspecified)	inactive: 3.32%
CCc1cc(O)c([N+](=O)[O-])c(C)c1[N+](=O)[O-]	inactive: -3.75%
CC(C)(C)C(=O)NC(Sc1ccccc1)C(Cl)(Cl)Cl (stereo unspecified)	inactive: 0.52%
CCOc1ccc(C2=NCC(CBr)S2)cc1 (stereo unspecified)	inactive: -0.71%
O=P1(Nc2nc3ccc(Cl)cc3s2)COc2ccccc2O1 (stereo unspecified)	inactive: 2.31%
CC(=O)Nc1ccc(Oc2c([N+](=O)[O-])cc([N+](=O)[O-])cc2[N+](=O)[O-])cc1	inactive: 1.63%
CC(=O)Nc1ccc([As](=O)(O)O)c(O)c1	inactive: -2.04%
COC(=O)C1(C)COP(=O)(NCc2ccccc2)OC1 (stereo unspecified)	inactive: 4%

Compound	inhibition
CC(=O)c1ccc(N2CC2c2ccncc2)cc1 (stereo unspecified)	inactive: 2.16%
N#C/C(=C\c1ccc(N(CCBr)CCBr)cc1)C(N)=O	inactive: 8.73%
C[C@H]1OP(=O)(Oc2ccccc2)C[C@@H]2O[C@@H]21 (stereo partly specified)	inactive: -5.79%
C[C@@H]1C=CCP(=O)(Oc2ccccc2)O1 (stereo partly specified)	inactive: -4.57%
Cc1ccccc1CN(C)C(=O)COC(=O)C(O)(c1ccccc1)c1ccccc1	inactive: 2%
O=P1(N(CCCl)CCCl)OCCC2CCCCN21 (stereo unspecified)	inactive: 0.93%
O=C(NC1CCS(=O)(=O)C1)NP(=S)(Oc1ccccc1)Oc1ccccc1 (stereo unspecified)	inactive: -5.42%
CCNC(=S)/N=C(\N)N[N+](=O)[O-]	inactive: 3.78%
Cc1ccc(NP(=O)(Oc2cccc(C)c2)Oc2cccc(C)c2)nc1	inactive: 4.53%
c1ccc(-c2nn[nH]n2)c(-c2nn[nH]n2)c1	inactive: -6.66%
O=c1c2cc([N+](=O)[O-])ccc2[nH]c2c([N+](=O)[O-])cc([N+](=O)[O-])cc12	inactive: -16.2%
CN(C)C(=O)Oc1noc2ccccc12	inactive: -2.79%
CC(NC(=O)COC(=O)C(O)(c1ccccc1)c1ccccc1)c1ccccc1 (stereo unspecified)	inactive: -3.01%
Cc1ccccc1OP(=O)(Nc1ccccn1)Oc1ccccc1C	inactive: -1.84%
CC(=O)NC(SC(=S)N(CC(C)C)CC(C)C)C(Cl)(Cl)Cl (stereo unspecified)	inactive: 9.28%
Cc1ccc(OP(=O)(Nc2ccccn2)Oc2ccc(C)cc2)cc1	inactive: -3.78%
COC(=O)c1cc2c(s1)N=C(c1ccccc1)N(C)P2(=O)N1CCOCC1 (stereo unspecified)	inactive: -8%
CCC(=O)N1C2C3N(C(=O)CC)C1C1N(C(=O)CC)C(C(N1C(=O)CC)N3C(=O)CC)N2C(=O)CC	inactive: -0.49%
O=C(OC1CN2CCC1CC2)c1ccccc1 (stereo unspecified)	inactive: 2.38%
